Results on four molecules are retold here after patent US8236818B2, “Substituted imidazopyridine derivatives as melanocortin-4 receptor antagonists” (Santhera Pharmaceuticals (Schweiz) AG, priority 2007, dated 2012).

Chains of the proteins cited; added tags and fusions are not shown.
UniProt P32245, whole entry: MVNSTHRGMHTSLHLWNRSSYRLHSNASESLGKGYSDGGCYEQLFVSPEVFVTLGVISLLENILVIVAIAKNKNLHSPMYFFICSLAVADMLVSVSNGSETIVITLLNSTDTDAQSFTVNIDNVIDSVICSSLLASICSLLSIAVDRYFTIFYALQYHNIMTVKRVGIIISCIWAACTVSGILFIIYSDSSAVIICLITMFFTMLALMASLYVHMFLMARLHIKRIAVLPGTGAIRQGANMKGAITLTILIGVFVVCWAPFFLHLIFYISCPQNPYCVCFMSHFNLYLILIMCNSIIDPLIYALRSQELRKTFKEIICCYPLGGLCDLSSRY

Where two headings read alike, the source gives them in different places.

The target in this test is melanocortin-4 receptor (Homo sapiens, UniProt P32245). Put plainly: Membrane binding assay (fluorescence polarization, competition with fluorescence labeled NDP-alpha-MSH).
[1] abbreviates: read-out: hMC-4R binding assay IC50/μM, HEK293 cell membrane preparations, tested form: HCl.

As for `CC(C)CCN(CCC(C)C)C(=O)c1ccc2nc(-c3ccc(Cl)cc3)c(CN3CCCNCC3)n2c1`, under setting [1], the IC50 was in the range of 0.1 to 1 µM. On to `CC(C)CCN(CCC(C)C)C(=O)c1ccc2nc(-c3ccc(Cl)c(Cl)c3)c(CN3CCC(N)CC3)n2c1`, for which the IC50 under setting [1] fell in the range of 0.1 to 1 µM. As for `CC(C)CCN(CCC(C)C)C(=O)c1ccc2nc(-c3ncco3)c(CCCN(C)CCF)n2c1`, under “read-out: hMC-4R binding assay IC50/μM, HEK293 cell membrane preparations, tested form: HCOOH”, the IC50 is 0.1 to 1 µM. Regarding `CC(C)CCN(CCC(C)C)C(=O)c1ccc2nc(-c3ccc(C#N)cc3)c(CN3CCCNCC3)n2c1`, the IC50 (read-out: hMC-4R binding assay IC50/μM, HEK293 cell membrane preparations, tested form: hydrochloride) fell in the range of 0.1 to 1 µM.
